{
  "source": "patent US20250057836A1",
  "about": "“Compositions And Methods Targeting G12 Signaling For Bronchodilator Therapy” (Rutgers, The State University of New Jersey, priority 2017, published 2025)",
  "tested_on": "SRE-luciferase reporter (luciferase expression upon Gα12 activation)",
  "assay": "SRE-luciferase assay in hTERT-immortalized HASMCs",
  "conditions": "control hTERT-immortalized HASMCs, carbachol 10 μM, 6 hours",
  "data": [
    {"smiles": "C[N+](C)(C)CCOC(N)=O.[Cl-]", "note": "[Carbachol, carbamoyl choline chloride]", "values": [
      {"measurement": "luciferase expression on carbachol stimulation", "value": "76±18", "unit": "% fold"}
    ]}
  ]
}
